Test [1] concerns the target T1, human TRPV1 (Homo sapiens, UniProt Q8NER1).
T1 construct: using primers designed surrounding the complete hTRPV1 open reading frame; expressed in transfected cells; host or cells: CHO-K1 cells stably transfected with pcDNA3.1(-)-hVR1 plasmid
Kind of test: pH-based assay, Protocol 2 (TRPV1/CHO cells, Fura-2 AM, FDSS-3000, pH 5.0-5.1). To be noted: H2SO4 agonist, mean ± SEM, number of trials in parentheses, read-out: TRPV1 IC50 Potency, Human pH CHO (hpH-CHO). Format: cell-based. An excerpt: For Protocol 2, a Chinese Hamster Ovary cell line (CHO) that has been engineered to constitutively express human recombinant TRPV1 was used (TRPV1/CHO cells). The TRPV1/CHO cell line was generated as described below.
The resulting PCR products were purified from agarose gels using Gel Band Purification Kit (GE Healthcare Bioscience) and were subcloned into pCR-Blunt vector (Invitrogen). The cloned cDNA was fully sequenced using a fluorescent dye-terminator reagent (BigDye Terminator ver3.1 Cycle Sequencing Kit, Applied Biosystems) and ABI Prism 3100 genetic analyzer (Applied Biosystems). The pCR-Blunt vector containing the hTRPV1 cDNA was subjected to restriction digestion with EcoRI. The restriction fragment was subcloned into expression vector pcDNA3.1 (−) (Invitrogen) and named pcDNA3.1 (−)-hVR1 plasmid. The sequence of the cDNA encoding TRPV1 is available at GenBank accession number AJ277028.
CHO-K1 cells were maintained in growth medium consisting of α-MEM, 10% FBS (Hyclone), and 100 IU/mL of penicillin-100 μg/mL of streptomycin mixed solution (Nacalai Tesque, Japan) at 37° C. in an environment of humidified 95% air and 5% CO2. […]
(5) The Fura-2 fluorescent intensity was monitored at a wavelength of 340 nm and at 380 nm, respectively, at a rate of 0.5 Hz for a total of 240 seconds.

Sequences of proteins named here, by UniProt entry; tags and fusion partners are left off.
UniProt Q8NER1, whole entry: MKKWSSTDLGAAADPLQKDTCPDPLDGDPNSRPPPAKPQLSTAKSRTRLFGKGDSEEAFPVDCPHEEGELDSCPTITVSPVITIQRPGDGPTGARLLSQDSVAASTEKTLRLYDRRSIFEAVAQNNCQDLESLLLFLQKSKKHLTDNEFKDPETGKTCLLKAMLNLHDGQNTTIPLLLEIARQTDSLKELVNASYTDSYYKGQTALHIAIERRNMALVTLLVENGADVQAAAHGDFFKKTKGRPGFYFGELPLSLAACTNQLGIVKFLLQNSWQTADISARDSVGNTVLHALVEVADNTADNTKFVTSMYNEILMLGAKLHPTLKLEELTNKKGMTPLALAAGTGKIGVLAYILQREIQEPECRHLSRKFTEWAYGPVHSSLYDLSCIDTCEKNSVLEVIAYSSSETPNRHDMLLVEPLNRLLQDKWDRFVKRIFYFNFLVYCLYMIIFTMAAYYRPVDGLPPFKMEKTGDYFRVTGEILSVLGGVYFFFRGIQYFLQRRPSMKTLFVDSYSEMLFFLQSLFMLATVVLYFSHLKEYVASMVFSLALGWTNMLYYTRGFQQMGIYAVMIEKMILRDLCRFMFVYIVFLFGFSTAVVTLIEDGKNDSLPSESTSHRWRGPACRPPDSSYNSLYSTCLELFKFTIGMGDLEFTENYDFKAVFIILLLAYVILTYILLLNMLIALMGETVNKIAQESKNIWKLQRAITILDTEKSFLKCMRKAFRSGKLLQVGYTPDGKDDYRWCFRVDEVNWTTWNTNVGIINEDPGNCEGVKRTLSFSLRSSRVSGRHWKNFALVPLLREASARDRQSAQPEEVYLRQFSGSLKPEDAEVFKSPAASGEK

Test [2] concerns the target T1, human TRPV1. Kind of test: Capsaicin-based assay, Protocol 2 (TRPV1/CHO cells, Fluo-4, FLIPR). The test is classed as cell-based. To be noted: capsaicin 100 nM final, mean ± SEM, number of trials in parentheses, read-out: TRPV1 IC50 Potency, Human Capsaicin CHO (hCAP-CHO). An excerpt:
The TRPV1/CHO cell line was generated as described below. […] The resulting PCR products were purified from agarose gels using Gel Band Purification Kit (GE Healthcare Bioscience) and were subcloned into pCR-Blunt vector (Invitrogen). The cloned cDNA was fully sequenced using a fluorescent dye-terminator reagent (BigDye Terminator ver3.1 Cycle Sequencing Kit, Applied Biosystems) and ABI Prism 3100 genetic analyzer (Applied Biosystems). The pCR-Blunt vector containing the hTRPV1 cDNA was subjected to restriction digestion with EcoRI. The restriction fragment was subcloned into expression vector pcDNA3.1 (-) (Invitrogen) and named pcDNA3.1 (-)-hVR1 plasmid. The sequence of the cDNA encoding TRPV1 is available at GenBank accession number AJ277028. […] The cells were transfected with the pcDNA3.1 (-)-hVR1 plasmid using FuGENE6 (Roche) according to the manufacturer's protocol. 24 hr after transfection, neomycin-resistant cells were selected using 1 mg/mL G418 (Nacalai Tesque). […] The cells expressing hTRPV1 were cultured in the growth medium supplemented with 1 mg/mL G418. […] Subsequently, the cells were loaded by incubation in 0.1 mL of wash buffer containing Fluo-4 at 3 μM final concentration. After 1 hour, the cells were washed twice with 0.2 mL wash buffer and resuspended in 0.1 mL wash buffer. The plates were then transferred to a Fluorescence Imaging Plate Reader (Molecular Devices). Fluorescence intensity was monitored for 15 seconds to establish a baseline. […] The final concentration of the compound was adjusted to range from 100 μM to 1.5625 μM. […] Data were collected over the entire time course and analyzed using Excel and the curve-fitting formula GraphPad Prism.

Molecules are shown by their SMILES.

Broadly, the IC50 is the midpoint of a concentration-inhibition curve.

As to `CN1CCCc2ccc(NC(=O)N3CCC(F)(c4ncccc4F)CC3)cc21` [Compound T4], the concentration for half-maximal inhibition (IC50) in test [1] worked out at 1180 ± 147 nM; in test [2] it was 1330 ± 334 nM.

Take `CCC(O)c1cnc(C2=CCN(C(=O)Nc3ccc(C(F)(F)F)cc3)CC2)c(Cl)c1` (stereo not drawn) [Compound U2]: the IC50 in test [2] stood at 231 ± 45.3 nM.

In the case of `COCc1cnc(C2=CCN(C(=O)Nc3ccc(OC(F)(F)F)cc3)CC2)c(Cl)c1` [Compound G3], in test [2], the IC50 worked out at 1080 ± 202 nM.

On to `O=C(Nc1ccc(C(F)(F)F)cc1)N1CC=C(c2ncccc2Cl)CC1` [Compound 200], for which the IC50 in test [1] turned out to be 31.8 nM; in test [2], 136 nM.

The record behind these values is patent publication US20090170867A1, “TRPV1 ANTAGONISTS INCLUDING SULFONAMIDE SUBSTITUENT AND USES THEREOF” (Shionogi & Co., Ltd., priority 2007, published 2009).
